Measurements: patent US20160075695A1, “BENZIMIDAZOLE DERIVATIVES AS BROMODOMAIN INHIBITORS” (Gilead Sciences, Inc., priority 2013, published 2016)

Tests used:
BRD4-2 = molecular target: T1, BRD4-2 (Homo sapiens, UniProt O60885); test: HTRF (TR-FRET) assay, BRD4-2 binding to acetylated histone H4 peptide; settings: 120 nM BRD4-2, 200 nM H4 peptide, 60 minutes at 25° C.; geometric mean of a minimum of four determinations
T1 construct: made in house; host or cells: Escherichia coli
Experimental: (§1) Binding of the two tandem bromodomains, BRD4-1 and BRD4-2, to an acetylated histone H4 peptide was measured using a homogeneous time resolved fluorescence resonance energy transfer (TR-FRET) assay. […] BRD4-1 and BRD4-2 were expressed and purified from Escherichia coli as N-terminal His6-tagged proteins. An XL665 labeled anti-His antibody (Cisbio) was used to specifically bind BRD4 and a cryptate labeled streptavidin protein was used because it specifically recognized the biotinylated H4 peptide. […] After an assay reaction time of 60 minutes at 25° C., binding was measured with 2 nM crytptate labeled streptavidin and 10 nM anti-His-XL665 antibody. TR-FRET signal was detected on an Envision plate reader (Ex: 320 nm; Em: 615/665 nm; 100 us delay and 200 μs read window). […] All IC50 values represent geometric mean values of a minimum of four determinations.

BRD4-1 [1] = molecular target: T2, BRD4-1 (Homo sapiens, UniProt O60885); test: HTRF (TR-FRET) assay, BRD4-1 binding to acetylated histone H4 peptide; settings: 60 nM BRD4-1, 200 nM H4 peptide, 60 minutes at 25° C.; geometric mean of a minimum of four determinations
T2 construct: made in house; host or cells: Escherichia coli
Experimental: as §1

BRD4-1 [2] = molecular target: T2, BRD4-1; test: Alpha assay, BRD4-1 binding to acetylated histone H4 peptide; settings: 15 nM BRD4-1, 200 nM H4 peptide, 60 minutes at 25° C.; geometric mean of a minimum of four determinations
Experimental: Binding of the bromodomain BRD4-I to an acetylated histone H4 peptide was measured using a bead-based Amplified Luminescent Proximity Homogeneous Assay (ALPHA). […] BRD4-I was expressed and purified from Escherichia coli as an N-terminal His6-tagged protein. Nickel-Chelate ALPHA acceptor beads (Perkin Elmer) were used to specifically bind BRD4-1 and ALPHA streptavidin donor beads (Perkin Elmer) were used because they specifically recognized the biotinylated H4 peptide. […] Assays were performed in 50 mM Hepes (pH 7.5), 150 mM NaCl, 0.1 mg/ml BSA, 0.01% (v/v) Brij, 0.5% (v/v) DMSO, 200 nM H4 peptide and 15 nM of BRD4-1 protein. After an assay reaction time of 60 minutes at 25° C., binding was measured with 20 μg/ml streptavidin donor beads and 20 μg/ml nickle-chelate acceptor beads. ALPHA signal was detected on an Envision plate reader (Ex: 320 nm; Em: 570 nm; Ex time: 180 ms). […] All IC50 values represent geometric mean values of a minimum of four determinations.

For `Cc1noc(C)c1-c1cc(/C=C/c2ccccc2)c2[nH]c(C3CC3)nc2c1` [Compound 1020-37, (E)-4-(2-cyclopropyl-4-styryl-1H-benzo[d]imidazol-6-yl)-3,5-dimethylisoxazole], the IC50 (BRD4-2) was 2.51 µM, the IC50 (BRD4-1 [1]) was 2.09 µM and the IC50 (BRD4-1 [2]) was 3.17 µM.
